System: BCM-3613 tumors
Test: PDX efficacy study, BCM-3613 orthotopic tumors
Format: in vivo, SCID/Beige mice
Settings: BCM-3613 trastuzumab-resistant PDX, vs vehicle
Description: BCM-3613 is a PDX model derived from a patient that acquired resistance to trastuzumab. BCM-3613 explants were implanted into the cleared mammary fat-pad of SCID/Beige recipient mice.
Studies were performed to determine the efficacy of the highly specific dual CDK12/CDK13 or single CDK13 inhibitors in pre-clinical models of human breast cancer. Four patient derived orthotopic breast xenograft models were used to validate targeting CDK12/13 or CDK13 alone as an anti-cancer strategy in subsets of breast cancer. […] Experiments therefore included 7-12 tumor bearing mice per experimental or control (vehicle) cohort with mice randomized prior to treatment to determine random sampling such that the median tumor size between cohorts was the same. All tumors sizes were measured throughout the duration of the experiment and graphed in figures without excluding any samples. For survival analyses, mice were euthanized when moribund, and/or when tumors became ulcerated or reached greater than 1.0 cm^3. […]
All animal studies are approved by the Scripps Florida IACUC. […] Tumor growth was measured in two dimensions using calipers and tumor volume calculated (v=0.5×length×width^2). […] Growth rates were monitored at indicated times and tumors were harvested for histopathology and lysate preparation for western blotting once vehicle treated tumors reached 0.8-1 cm^3.

trastuzumab [reference compound]
Tumor growth, single agent: no efficacy over vehicle treated cohort

Source: patent US11666578B2, “Small molecule inhibitors of CDK12/CDK13” (The Scripps Research Institute, priority 2018, dated 2023)
